Here are results for two molecules from US10385070B2, “Chroman-spirocyclic piperidine amides as modulators of ion channels” (VERTEX PHARMACEUTICALS INCORPORATED, priority 2011, dated 2019).

Sequences of proteins named here, by UniProt entry; tags and fusion partners are left off.
UniProt Q15858, whole entry: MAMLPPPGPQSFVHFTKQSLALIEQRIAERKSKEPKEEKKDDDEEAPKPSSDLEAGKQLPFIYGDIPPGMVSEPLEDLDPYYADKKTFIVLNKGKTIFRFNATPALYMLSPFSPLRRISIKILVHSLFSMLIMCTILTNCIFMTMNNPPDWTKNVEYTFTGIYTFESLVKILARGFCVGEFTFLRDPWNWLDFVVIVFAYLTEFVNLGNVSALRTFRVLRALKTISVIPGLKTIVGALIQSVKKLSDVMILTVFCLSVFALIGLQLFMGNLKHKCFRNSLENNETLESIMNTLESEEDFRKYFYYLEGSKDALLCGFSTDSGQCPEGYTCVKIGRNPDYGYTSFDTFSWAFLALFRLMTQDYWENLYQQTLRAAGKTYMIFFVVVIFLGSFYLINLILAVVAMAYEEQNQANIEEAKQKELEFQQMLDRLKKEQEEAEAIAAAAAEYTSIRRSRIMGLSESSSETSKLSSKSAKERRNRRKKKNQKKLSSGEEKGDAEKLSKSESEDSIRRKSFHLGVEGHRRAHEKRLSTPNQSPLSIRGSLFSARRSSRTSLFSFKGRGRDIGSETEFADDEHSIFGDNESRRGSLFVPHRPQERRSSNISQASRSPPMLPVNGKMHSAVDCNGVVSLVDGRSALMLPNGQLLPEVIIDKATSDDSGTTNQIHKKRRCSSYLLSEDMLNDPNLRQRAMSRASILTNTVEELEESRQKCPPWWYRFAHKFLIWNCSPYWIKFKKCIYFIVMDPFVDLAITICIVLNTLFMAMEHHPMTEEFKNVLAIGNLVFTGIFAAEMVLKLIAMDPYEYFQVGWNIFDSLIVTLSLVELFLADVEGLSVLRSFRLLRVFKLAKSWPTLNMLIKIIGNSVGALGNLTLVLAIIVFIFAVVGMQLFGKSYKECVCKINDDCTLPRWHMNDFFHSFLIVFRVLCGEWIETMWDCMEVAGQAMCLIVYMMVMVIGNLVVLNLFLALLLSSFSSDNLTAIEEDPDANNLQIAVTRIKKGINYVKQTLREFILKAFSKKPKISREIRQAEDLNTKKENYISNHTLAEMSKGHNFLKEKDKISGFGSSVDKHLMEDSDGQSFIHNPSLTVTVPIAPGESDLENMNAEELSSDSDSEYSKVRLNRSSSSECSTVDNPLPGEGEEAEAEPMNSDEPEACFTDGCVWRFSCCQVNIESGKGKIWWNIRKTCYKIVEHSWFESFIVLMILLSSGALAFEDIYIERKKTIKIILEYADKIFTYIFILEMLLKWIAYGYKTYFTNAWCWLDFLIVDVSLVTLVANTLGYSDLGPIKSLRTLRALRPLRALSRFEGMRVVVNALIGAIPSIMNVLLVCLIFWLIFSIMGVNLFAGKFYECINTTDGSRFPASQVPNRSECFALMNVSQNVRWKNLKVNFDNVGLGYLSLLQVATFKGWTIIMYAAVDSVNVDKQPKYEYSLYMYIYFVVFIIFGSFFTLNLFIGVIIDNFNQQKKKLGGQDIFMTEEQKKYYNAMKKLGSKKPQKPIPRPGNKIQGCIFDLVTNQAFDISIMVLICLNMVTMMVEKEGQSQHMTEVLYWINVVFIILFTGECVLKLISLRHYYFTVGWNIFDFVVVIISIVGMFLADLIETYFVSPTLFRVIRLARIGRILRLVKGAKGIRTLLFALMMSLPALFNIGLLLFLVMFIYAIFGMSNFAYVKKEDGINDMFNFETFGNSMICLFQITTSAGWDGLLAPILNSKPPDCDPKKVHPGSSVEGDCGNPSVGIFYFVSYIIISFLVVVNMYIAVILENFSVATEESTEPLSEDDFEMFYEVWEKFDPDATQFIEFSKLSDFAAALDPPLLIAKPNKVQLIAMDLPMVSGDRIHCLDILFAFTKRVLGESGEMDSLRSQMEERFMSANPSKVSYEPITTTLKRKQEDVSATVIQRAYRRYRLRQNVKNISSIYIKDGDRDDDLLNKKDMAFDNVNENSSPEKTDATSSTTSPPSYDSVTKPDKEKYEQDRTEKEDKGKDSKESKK

pIC50: −log10 of the molar value. Where only a bound is given, the exact number is not on record here.

This experiment addresses human NaV subtype, like NaV 1.7 (Homo sapiens, UniProt Q15858). Briefly: E-VIPR optical membrane potential assay with electrical stimulation. The class given is cell-based. To be noted: read-out: IC50 Binned Activity Data; active against one or more sodium channels; assay and NaV subtype not specified for Table 3. The text has this: Assays for Detecting and Measuring NaV Inhibition Properties of Compound E-VIPR Optical Membrane Potential Assay Method with Electrical Stimulation
Sodium channels are voltage-dependent proteins that can be activated by inducing membrane voltage changes by applying electric fields. The electrical stimulation instrument and methods of use are described in Ion Channel Assay Methods PCT/US01/21652, herein incorporated by reference and are referred to as E-VIPR. The instrument comprises a microtiter plate handler, an optical system for exciting the coumarin dye while simultaneously recording the coumarin and oxonol emissions, a waveform generator, a current- or voltage-controlled amplifier, and a device for inserting electrodes in well. Under integrated computer control, this instrument passes user-programmed electrical stimulus protocols to cells within the wells of the microtiter plate.
24 hours before the assay on E-VIPR, HEK cells expressing human NaV subtype, like NaV 1.7, are seeded in 384-well poly-lysine coated plates at 15,000-20,000 cells per well. Other subtypes are performed in an analogous mode in a cell line expressing the NaV of interest. […]
7) Read Plate on E-VIPR. […]

For `CCO[C@@H]1CC2(CCN(C(=O)c3ccc(S(=O)(=O)C(C)C)c(C#N)c3)CC2)Oc2ccc(F)cc21`, the pIC50 (in general, the negative decadic logarithm of the IC50, by convention in mol/L) was 5.30 to 5.70.

Take `CCS(=O)(=O)c1ccc(C(=O)N2CCC3(CC2)C[C@@H](OC(C)C)c2cc(F)ccc2O3)cc1`: the pIC50 was over 5.70.
